## Binding of CDR-mutated scFvs to a peptide of the spike HR2 region

Reference: Li et al. 2023, doi:10.1038/s41467-023-39022-2. File: FLAb, binding data.

Target: peptide PDVDLGDISGINAS, taken from heptad repeat 2 (HR2) of SARS-CoV-2 spike.

Ab-14 is the parent antibody, in scFv form: VH, then the linker GGGGSGGGGSGGGGS, then VL. The heavy chain is unchanged in all variants.
VH: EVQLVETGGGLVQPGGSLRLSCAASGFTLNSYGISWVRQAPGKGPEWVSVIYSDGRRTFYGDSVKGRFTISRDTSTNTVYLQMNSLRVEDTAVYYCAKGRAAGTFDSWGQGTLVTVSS
VL: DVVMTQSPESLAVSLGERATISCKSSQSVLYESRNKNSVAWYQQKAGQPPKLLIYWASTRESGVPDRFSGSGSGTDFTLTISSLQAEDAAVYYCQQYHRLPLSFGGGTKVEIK

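The starting antibody came from a phage panning campaign against this peptide. Designed CDR sequences, proposed from the first random library and measured here. Several design methods are mixed in this list. The scFvs were displayed on barcoded MATa yeast, the peptide on MATalpha yeast. The frequency of each diploid, read from paired DNA barcodes, reflects how well the two displayed proteins bind. Scores were corrected for input abundance and mapped to Kd with protein pairs of known affinity run in the same pool. The assay was run in six technical replicates.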

Variants are written as CDR1, CDR2 and CDR3 of the light chain (limits as in the source). Parent: KSSQSVLYESRNKNSVA, WASTRES, QQYHRLPLS.
Variants here have more than six changes.
Values are log10 of the apparent Kd in nM; lower means stronger binding.
The mean shown is taken over the replicates in which the pair was detected.
A pair that was not seen in any replicate is written "not detected"; this usually means weak binding, but a binder can also be missed.
The range of this assay differs from that of the first round, and the authors advise against merging the two.
Background: pairings of all light chain designs with three empty control strains gave a value in 4% of cases (median 2.64, 5th percentile 1.59). Values in that range, when seen in few replicates, are hard to tell from nonspecific mating. Also given: how often the same scFv was detected with the empty control strains.
The parent sequence was in this pool as ten entries: three were never detected, three once, and four in most replicates, with averages from 0.34 to 2.37.
The authors averaged sequences with at least three values out of six and counted those with two or fewer as poor binders.

| CDR-L1 | CDR-L2 | CDR-L3 | log10 Kd (nM), mean | replicates with signal | signal with controls |
|---|---|---|---|---|---|
| KQDQSCPGEQRNKNSVA | SASTRIS | QQYHRLPLS | 1.52 | 6/6 | 0/18 |
| KVSEFMRGLMMRQDSIA | DNVTRNN | QQYDRLPLS | 1.99 | 1/6 | 0/18 |
| HINTASVTVDDHYNAVA | EQRLTSI | QQYFRLPLS | 2.00 | 4/6 | 0/18 |
| KITQAVNYLSRVMNSVA | DNSTRES | QQYFRLPLS | 0.37 | 6/6 | 0/18 |
| KLYDEATSRVGTAENIA | EKTISLQ | QQYHRLPLS | 1.73 | 3/6 | 1/18 |
| HISQSFMTEQVWRNNIA | HQSTRET | QQYDRLPFS | 0.64 | 6/6 | 0/18 |
| QLATEVHDNAKLRHSIA | ENELRAM | QQYFMLPLS | 0.82 | 6/6 | 0/18 |
| RLLDWAYGWTAKERNIA | DMDIRGA | QQYSHLPLA | 1.35 | 6/6 | 0/18 |
| TISQMFLGESRNRNSVA | QASTREN | QSYDRLPLS | 1.11 | 6/6 | 4/18 |
| HISPMQAMAYEAKNSVA | DTETKLN | QQYIRLPLS | 0.22 | 6/6 | 1/18 |
| KITATMRFEQKNSNNIA | EVSMRTK | QQYVRLPLA | 0.97 | 6/6 | 0/18 |
| NVNVSEDQWPSSKNAIA | QTTCRNL | QQYASLPLS | 1.26 | 6/6 | 0/18 |
| NSSGPGMFESRNKNSVA | HASTREE | QQYDRLPLS | 1.12 | 6/6 | 1/18 |
| NISIEDYPENNFANNVA | NTDCRCD | QQYFMLPLM | 2.39 | 5/6 | 1/18 |
| KLSQSHLYESRNSNNVA | MASYRMD | QQYHRLPLS | 0.31 | 6/6 | 2/18 |
| IIAEQIMHVGIGANAIA | NATVRSA | QQYLRLPLM | 0.49 | 6/6 | 0/18 |
| KVSQSVMMLQRNKNSVA | DNSTSGS | QQYHRLPLS | 2.15 | 4/6 | 1/18 |
| SLVQKADYMDSERNNIA | NMDLRNE | QQYFHLPLT | 2.33 | 6/6 | 0/18 |
| KLSMVQGHMMVSKNNVA | EMETRVN | QQYDRLPLS | 0.27 | 6/6 | 0/18 |
| HITYGMQVAGRAHSSIA | QAEERAK | QQYDRLPLI | 0.76 | 6/6 | 1/18 |
| ALSQVMDMTSRNVNSVA | DLTTREN | QQYHRLPLS | 0.48 | 6/6 | 3/18 |
| KIQLGLERYNGDYSSVA | NETQKGD | QQYFQLPLG | 0.63 | 6/6 | 1/18 |
| MISNVMNTLTRIGNNVA | DLAERED | QQYFRLPLS | 1.30 | 6/6 | 1/18 |
| KSEWGVDDESRNDNQVA | NASTRLS | QQYHRLPLS | 0.41 | 6/6 | 5/18 |
| QLYEMLYELSGKTHSVA | DNSTRGE | QQYFRLPLD | 2.16 | 6/6 | 4/18 |
| KLMNSMLYESRNVNSVA | NASYRES | QQYHRLPLS | -0.37 | 6/6 | 0/18 |
| SLYENYANGSQHTNAVA | DANQMMR | QHYNRLPLA | 1.29 | 4/6 | 0/18 |
| MMSQVTGQGTRHRNNVA | QTSTREP | QQYDRLPLM | 0.81 | 6/6 | 2/18 |
| KISQEDPMENRNKNSVA | HASLRES | QQYHRLPLS | -0.14 | 6/6 | 2/18 |
| KLEQSELYQSRNPQSVA | NASERES | QQYHRLPLS | 0.32 | 6/6 | 0/18 |
| IVSQLMIWGMHVKNSIA | EAEQRIN | QQYDRLPLF | 1.51 | 1/6 | 0/18 |
| MMTEGLLGENKNSSNIA | SQNIKTA | QQYQRLPLT | -0.31 | 5/6 | 0/18 |
| TVTQMAMTGMMSKRSVA | NAETREN | QQYHRLPLI | 0.54 | 6/6 | 0/18 |
| MISQVMGLNNMYKSSVA | QAEERVS | QQYDHLPLS | 0.70 | 6/6 | 0/18 |
| HISMMVGTKGYNKNSVA | NSETRED | QQYHRLPLS | 2.30 | 5/6 | 1/18 |
| KLENSNLYESRNGNSVA | NASTRLH | QQYHRLPLS | 0.02 | 6/6 | 0/18 |
| KFSQLWMYEQRNKNSVA | QASQRED | QQYHRLPLS | 0.08 | 6/6 | 0/18 |
| MISQISSMGQFAKNSVA | QASQRNT | QQYDRLPLI | 0.53 | 6/6 | 3/18 |
| FMEMDFDGNDVNRNSIA | SSEAVTR | QHYARLPLS | not detected | 0/6 | 2/18 |
| TISQITSSFSMNINNVA | EVSTREK | QQYDRLPLS | 1.40 | 5/6 | 0/18 |
| MIAESVGYQSRNKNSVA | DNSTRED | QCYDRLPLS | 2.35 | 3/6 | 1/18 |
| KFNISKEGVTSEGKSIA | GSQTIDE | QQYDRLPLA | 1.89 | 6/6 | 1/18 |
| TIGGTLMFGMRNRSNVA | EVSQRLN | QQYDRLPLM | 1.59 | 6/6 | 1/18 |
| MISQSFLIGMKAKNSVA | QTNTREE | QQYDRLPLI | 0.95 | 6/6 | 0/18 |
| QIAMEMYHDLNDAQNVA | DAMTWIP | QQYSRLPLS | 3.46 | 1/6 | 1/18 |
| KLQFSCLYESRDKNSVA | DASYRSS | QQYHRLPLS | -0.08 | 6/6 | 1/18 |
| KAQNSNEYESRMKNSVA | NASQRED | QQYHRLPLS | not detected | 0/6 | 0/18 |
| NLGGEDAQDTRGMAAVA | DVSEVGD | QHYSRLPLS | 1.19 | 6/6 | 3/18 |
| KMSQSALMEPRNKNSVA | NASQRQM | QQYHRLPLS | -0.07 | 6/6 | 2/18 |
| TIGSTLMYGSRNRSNVA | EVSERLN | QQYDRLPLF | 1.24 | 6/6 | 2/18 |
| KLSQTSGMEHVSRNSVA | ELVTRMS | QQYNRLPLS | 0.84 | 6/6 | 1/18 |
| KLSQSELYESRCANSVA | NASTRCE | QQYHRLPLS | 1.30 | 6/6 | 0/18 |
| QIQGKLQEHGNQGANVA | QGVESRN | QQYFRLPLT | 0.79 | 6/6 | 2/18 |
| KLTNVTGTEKVIGNNVA | EMETRER | QQYNRLPLS | 1.17 | 6/6 | 0/18 |
| HSYQSGLYESRNQNSVA | SASMRSS | QQYHRLPLS | 0.63 | 6/6 | 1/18 |
| KSSQSDLYESRNKHSVA | HAHTRAR | QQYHKLPLS | 2.95 | 2/6 | 1/18 |
| KIGSATNGEKFQSNSVA | QTSTREE | QQYHRLPLS | 0.36 | 4/6 | 0/18 |
| HLELKVGGVQAVGDSVA | HASQRQA | QQYYQLPLT | 0.46 | 6/6 | 2/18 |
| KLMGSMMYEQRMKNSVA | QASVRMS | QQYHRLPLS | 0.42 | 6/6 | 2/18 |
| TISQLMNMGQFAINSVA | QASIRNA | QQYDRLPLM | 0.94 | 6/6 | 1/18 |
| QISMLLNFESKKGNNVA | QMETRVN | QQYDRLPLS | -0.01 | 6/6 | 2/18 |
| TISQMTSLFSQSINNVA | EVSMREK | QQYDRLPLI | 1.29 | 5/6 | 0/18 |
| KFFGGIPEFERDDYSIA | MGTLRET | QQYQRLPLS | 1.08 | 6/6 | 0/18 |
| HLQEQSFVGQKDYWSVA | NTECKYN | QQYAQLPLM | 2.45 | 5/6 | 1/18 |
| NMTEQVFQGSRNKYNIA | AEVKRVY | QQYQRLPLM | 1.28 | 2/6 | 0/18 |
| HISMMVGTKGYKKNSVA | NAETRED | QQYHRLPLS | 0.38 | 6/6 | 0/18 |
| KIGMTLNQLYEKANNVA | DLVTREN | QQYHRLPLS | 0.77 | 6/6 | 2/18 |
| MLSQMWALGQKVSNSVA | QASMRFN | QQYHRLPLI | 1.70 | 6/6 | 1/18 |

The 8 strongest on average among those seen in every replicate, once more:

CDR-L1	CDR-L2	CDR-L3	log10 Kd (nM), mean	replicates with signal	signal with controls
KLMNSMLYESRNVNSVA	NASYRES	QQYHRLPLS	-0.37	6/6	0/18
KISQEDPMENRNKNSVA	HASLRES	QQYHRLPLS	-0.14	6/6	2/18
KLQFSCLYESRDKNSVA	DASYRSS	QQYHRLPLS	-0.08	6/6	1/18
KMSQSALMEPRNKNSVA	NASQRQM	QQYHRLPLS	-0.07	6/6	2/18
QISMLLNFESKKGNNVA	QMETRVN	QQYDRLPLS	-0.01	6/6	2/18
KLENSNLYESRNGNSVA	NASTRLH	QQYHRLPLS	0.02	6/6	0/18
KFSQLWMYEQRNKNSVA	QASQRED	QQYHRLPLS	0.08	6/6	0/18
HISPMQAMAYEAKNSVA	DTETKLN	QQYIRLPLS	0.22	6/6	1/18